The term Kd denotes a measure of binding affinity in units of concentration. A lower Kd goes with higher affinity. As a reminder, the Ki is a measure of affinity in units of concentration, obtained from inhibition or displacement. High values mean weaker binding, low ones tighter binding.

Amino acid sequences for entries named in this document (tags omitted). Residues count along the entry.
UniProt P27487, 31-766: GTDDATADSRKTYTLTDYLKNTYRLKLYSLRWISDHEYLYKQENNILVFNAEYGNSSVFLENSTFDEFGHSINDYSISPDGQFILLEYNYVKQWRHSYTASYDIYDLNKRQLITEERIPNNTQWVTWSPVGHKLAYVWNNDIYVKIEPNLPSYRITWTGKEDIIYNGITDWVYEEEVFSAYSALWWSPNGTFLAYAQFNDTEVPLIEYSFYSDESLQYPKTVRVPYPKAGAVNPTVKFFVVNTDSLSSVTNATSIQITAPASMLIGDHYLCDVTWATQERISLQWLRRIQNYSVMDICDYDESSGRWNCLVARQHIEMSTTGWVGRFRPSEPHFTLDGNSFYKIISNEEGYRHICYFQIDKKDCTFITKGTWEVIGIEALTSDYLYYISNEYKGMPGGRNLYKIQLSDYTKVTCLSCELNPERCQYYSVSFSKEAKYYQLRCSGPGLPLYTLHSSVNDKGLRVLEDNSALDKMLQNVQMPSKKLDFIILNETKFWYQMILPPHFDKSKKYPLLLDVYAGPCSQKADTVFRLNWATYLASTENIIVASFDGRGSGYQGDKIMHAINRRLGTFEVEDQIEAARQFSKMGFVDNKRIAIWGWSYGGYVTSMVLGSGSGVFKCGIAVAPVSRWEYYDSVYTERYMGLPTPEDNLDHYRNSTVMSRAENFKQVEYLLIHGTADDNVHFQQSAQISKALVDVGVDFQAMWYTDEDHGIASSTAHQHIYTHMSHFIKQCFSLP

In one assay the target is DPP-IV (Homo sapiens, UniProt P27487). Put plainly: Biacore surface plasmon resonance binding to immobilized DPP-IV. In general terms: Surface plasmon resonance follows binding to a sensor surface in real time, without labels.
Assay [1] has as its target sDPP-IV (soluble extracellular domain of human dipeptidyl peptidase IV) (Homo sapiens, UniProt P27487). Nature of the assay: DPP-IV activity assay, fluorescence of products from Ala-Pro-7-amido-4-trifluoromethylcoumarin.

`CC[C@H](C)[C@H](N)C(=O)N1CCC[C@H]1C(=O)N[C@H](C(=O)O)[C@@H](C)CC` [Ile-Pro-Ile, reference compound] showed a Kd at DPP-IV of 3.8 µM. Moreover, in assay [1], the Ki turned out to be 4.63 µM.

The values are drawn from US20070100561A1, “Crystals of DPP-IV” (priority 2002, published 2007).
